Laboratory results published in ChEMBL document CHEMBL1152778, “Design, synthesis, and biological evaluation of (2R,alphaS)-3,4-dihydro-2-[3-(1,1,2,2-tetrafluoroethoxy)phenyl]-5-[3-(trifluoromethoxy)-phenyl]-alpha-(trifluoromethyl)-1(2H)-quinolineethanol as potent and orally active cholesteryl ester transfer protein inhibitor” (J Med Chem, 2009).

What was measured:
[1] = target: T1, Cholesteryl ester transfer protein (Homo sapiens, UniProt P11597); assay: Inhibition of CETP-mediated transfer of [3H]cholesteryl ester from HDL donar particles to LDL acceptor particles in presence of buffer
T1 sequence (P11597 whole entry): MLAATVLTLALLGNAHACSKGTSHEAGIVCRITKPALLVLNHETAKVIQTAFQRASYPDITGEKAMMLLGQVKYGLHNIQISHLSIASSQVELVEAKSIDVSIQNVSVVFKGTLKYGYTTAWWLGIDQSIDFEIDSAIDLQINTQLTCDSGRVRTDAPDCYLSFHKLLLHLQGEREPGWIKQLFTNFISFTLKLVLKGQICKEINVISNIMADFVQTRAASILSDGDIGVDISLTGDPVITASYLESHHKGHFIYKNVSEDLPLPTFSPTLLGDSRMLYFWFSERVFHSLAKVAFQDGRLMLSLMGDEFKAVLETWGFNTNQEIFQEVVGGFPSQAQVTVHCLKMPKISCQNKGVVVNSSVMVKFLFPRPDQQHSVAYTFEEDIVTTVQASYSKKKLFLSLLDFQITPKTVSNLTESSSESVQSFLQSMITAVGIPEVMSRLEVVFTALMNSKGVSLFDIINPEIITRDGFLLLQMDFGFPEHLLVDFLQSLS

[2] = target: T1, Cholesteryl ester transfer protein; assay: Inhibition of CETP-mediated transfer of [3H]cholesteryl ester from HDL donar particles to LDL acceptor particles
[3] = target: T1, Cholesteryl ester transfer protein; assay: Inhibition of CETP-mediated transfer of [3H]cholesteryl ester from HDL donar particles to LDL acceptor particles in presence of human serum

IC50 [1]: 3 nM
IC50 [2]: 3 nM
IC50 [3]: 59 nM
SMILES: CCc1cc(Oc2cccc(N(Cc3cccc(OC(F)(F)C(F)F)c3)CC(O)C(F)(F)F)c2)ccc1Cl (stereo not drawn)
